Experimental data: ChEMBL document CHEMBL4257588, “Selective Inhibitors of Human Neuraminidase 1 (NEU1)” (J Med Chem, 2018)

What was measured:
[1] = species on record: Homo sapiens; assay: Selectivity index, ratio of IC50 for inhibition of N-terminal MBP-fused human NEU3 expressed in Escherichia coli to IC50 for inhibition of human His6-tagged NEU1 expressed in HEK293 cells
[2] = species on record: Homo sapiens; assay: Selectivity index, ratio of IC50 for inhibition of N-terminal MBP-fused human NEU2 expressed in Escherichia coli to IC50 for inhibition of human His6-tagged NEU1 expressed in HEK293 cells

SMILES: CCCCCC(=O)N[C@H]1[C@H]([C@H](O)[C@H](O)CNC(C)=O)OC(C(=O)O)=C[C@@H]1O
- Ratio IC50 [1]: 340
- Ratio IC50 [2]: 340
